Legend:
[1] = biological target: Oxysterols receptor LXR-alpha (Homo sapiens, UniProt Q13133); assay: Activation of GAL4 fused human LXR alpha expressed in HEK293 cells after 24 hrs by luciferase reporter gene assay relative to 22R-HC; type: cell-based
Outline: (§1)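 HEK293 cells carrying the Gal4-LXR-α or Gal4-LXR-β chimera plus the pMH100X4-TK-luc and Renilla reporters. Treatment started 6 h post-transfection and ran 24 h. Dual luciferase read-out. Efficacy is given as % of the response to 8 μM 22R-HC, ± SD, from three to five independent experiments.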

Protein sequences, listed by entry. Tags and fused reporters are not part of them.
UniProt Q13133, whole entry: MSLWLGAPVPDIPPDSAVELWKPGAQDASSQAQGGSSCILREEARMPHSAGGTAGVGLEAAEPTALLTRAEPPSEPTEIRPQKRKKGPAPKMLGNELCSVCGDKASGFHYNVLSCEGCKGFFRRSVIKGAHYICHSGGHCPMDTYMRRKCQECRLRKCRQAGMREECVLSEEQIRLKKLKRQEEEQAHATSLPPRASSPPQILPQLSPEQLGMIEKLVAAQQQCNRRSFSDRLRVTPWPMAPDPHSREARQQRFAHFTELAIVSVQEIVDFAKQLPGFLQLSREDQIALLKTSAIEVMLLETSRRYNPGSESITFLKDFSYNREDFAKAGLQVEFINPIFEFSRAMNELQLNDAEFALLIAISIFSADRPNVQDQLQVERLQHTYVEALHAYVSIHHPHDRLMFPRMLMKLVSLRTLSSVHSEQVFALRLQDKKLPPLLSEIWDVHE
UniProt P55055, whole entry: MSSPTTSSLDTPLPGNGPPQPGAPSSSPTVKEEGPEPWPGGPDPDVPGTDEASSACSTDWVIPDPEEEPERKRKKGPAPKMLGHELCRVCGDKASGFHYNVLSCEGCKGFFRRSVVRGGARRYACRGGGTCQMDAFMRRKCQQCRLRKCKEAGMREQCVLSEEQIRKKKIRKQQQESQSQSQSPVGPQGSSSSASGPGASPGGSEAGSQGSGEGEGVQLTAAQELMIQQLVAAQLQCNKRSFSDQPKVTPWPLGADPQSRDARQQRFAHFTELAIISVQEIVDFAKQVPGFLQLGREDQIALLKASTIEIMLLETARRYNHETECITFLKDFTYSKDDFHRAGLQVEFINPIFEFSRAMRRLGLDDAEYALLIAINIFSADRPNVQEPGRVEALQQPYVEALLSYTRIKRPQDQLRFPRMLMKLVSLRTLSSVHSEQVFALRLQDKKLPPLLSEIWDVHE

[2] = biological target: Oxysterols receptor LXR-beta (Homo sapiens, UniProt P55055); assay: Activation of GAL4 fused human LXR beta expressed in HEK293 cells after 24 hrs by luciferase reporter gene assay relative to 22R-HC; type: cell-based; outline: as §1

Row | SMILES | Efficacy [1] | Efficacy [2]
1 | CC[C@@H](C(C)C)[C@H](O)C[C@@H](C)[C@H]1CC[C@H]2[C@@H]3CC=C4C[C@@H](O)CC[C@]4(C)[C@H]3CC[C@]12C | 489% | 115%
2 | CC[C@H](C[C@@H](O)[C@@H](C)[C@H]1CC[C@H]2[C@@H]3CC=C4C[C@@H](O)CC[C@]4(C)[C@H]3CC[C@]12C)C(C)C | 208% | 90.8%
3 | CC(C)[C@@H](C)C[C@H](O)[C@@H](C)[C@H]1CC[C@H]2C3=CC=C4C[C@@H](O)CC[C@]4(C)[C@H]3CC[C@]12C | 74.7% | 41.9%

Reference: ChEMBL document CHEMBL4038329, “Side-Chain Modified Ergosterol and Stigmasterol Derivatives as Liver X Receptor Agonists” (J Med Chem, 2017)
